The values below come from ChEMBL document CHEMBL4699451, “Discovery of BIIB068: A Selective, Potent, Reversible Bruton's Tyrosine Kinase Inhibitor as an Orally Efficacious Agent for Autoimmune Diseases” (J Med Chem, 2020).

Amino acid sequences for entries named in this document (tags omitted). A change or cut given only in a name is not applied to a line headed by its entry.
UniProt Q2M2I8: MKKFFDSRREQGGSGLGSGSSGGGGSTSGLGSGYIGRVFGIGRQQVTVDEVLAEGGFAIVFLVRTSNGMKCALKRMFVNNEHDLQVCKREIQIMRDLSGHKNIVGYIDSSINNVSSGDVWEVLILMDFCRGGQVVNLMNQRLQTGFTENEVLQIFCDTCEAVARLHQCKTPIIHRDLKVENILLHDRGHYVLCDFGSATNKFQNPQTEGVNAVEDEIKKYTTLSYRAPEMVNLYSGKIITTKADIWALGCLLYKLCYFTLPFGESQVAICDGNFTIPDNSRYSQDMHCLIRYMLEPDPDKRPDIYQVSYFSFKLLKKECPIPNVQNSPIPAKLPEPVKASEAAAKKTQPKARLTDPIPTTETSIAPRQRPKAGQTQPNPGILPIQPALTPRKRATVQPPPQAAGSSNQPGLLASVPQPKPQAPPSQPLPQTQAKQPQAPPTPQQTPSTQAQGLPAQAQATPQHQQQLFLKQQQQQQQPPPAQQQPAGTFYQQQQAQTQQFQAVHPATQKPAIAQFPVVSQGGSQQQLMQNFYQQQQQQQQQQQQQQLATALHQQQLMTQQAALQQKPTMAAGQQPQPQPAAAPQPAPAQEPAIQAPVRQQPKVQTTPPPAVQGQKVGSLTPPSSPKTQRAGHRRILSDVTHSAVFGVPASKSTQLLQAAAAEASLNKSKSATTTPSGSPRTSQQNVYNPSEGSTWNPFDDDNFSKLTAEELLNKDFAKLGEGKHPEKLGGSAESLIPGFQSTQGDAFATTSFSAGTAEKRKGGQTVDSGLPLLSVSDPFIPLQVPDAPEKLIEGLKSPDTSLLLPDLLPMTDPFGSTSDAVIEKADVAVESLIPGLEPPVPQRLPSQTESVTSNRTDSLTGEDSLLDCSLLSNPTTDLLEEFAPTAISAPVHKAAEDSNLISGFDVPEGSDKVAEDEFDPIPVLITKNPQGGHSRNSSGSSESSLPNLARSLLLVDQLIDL
UniProt Q9NSY1, whole entry: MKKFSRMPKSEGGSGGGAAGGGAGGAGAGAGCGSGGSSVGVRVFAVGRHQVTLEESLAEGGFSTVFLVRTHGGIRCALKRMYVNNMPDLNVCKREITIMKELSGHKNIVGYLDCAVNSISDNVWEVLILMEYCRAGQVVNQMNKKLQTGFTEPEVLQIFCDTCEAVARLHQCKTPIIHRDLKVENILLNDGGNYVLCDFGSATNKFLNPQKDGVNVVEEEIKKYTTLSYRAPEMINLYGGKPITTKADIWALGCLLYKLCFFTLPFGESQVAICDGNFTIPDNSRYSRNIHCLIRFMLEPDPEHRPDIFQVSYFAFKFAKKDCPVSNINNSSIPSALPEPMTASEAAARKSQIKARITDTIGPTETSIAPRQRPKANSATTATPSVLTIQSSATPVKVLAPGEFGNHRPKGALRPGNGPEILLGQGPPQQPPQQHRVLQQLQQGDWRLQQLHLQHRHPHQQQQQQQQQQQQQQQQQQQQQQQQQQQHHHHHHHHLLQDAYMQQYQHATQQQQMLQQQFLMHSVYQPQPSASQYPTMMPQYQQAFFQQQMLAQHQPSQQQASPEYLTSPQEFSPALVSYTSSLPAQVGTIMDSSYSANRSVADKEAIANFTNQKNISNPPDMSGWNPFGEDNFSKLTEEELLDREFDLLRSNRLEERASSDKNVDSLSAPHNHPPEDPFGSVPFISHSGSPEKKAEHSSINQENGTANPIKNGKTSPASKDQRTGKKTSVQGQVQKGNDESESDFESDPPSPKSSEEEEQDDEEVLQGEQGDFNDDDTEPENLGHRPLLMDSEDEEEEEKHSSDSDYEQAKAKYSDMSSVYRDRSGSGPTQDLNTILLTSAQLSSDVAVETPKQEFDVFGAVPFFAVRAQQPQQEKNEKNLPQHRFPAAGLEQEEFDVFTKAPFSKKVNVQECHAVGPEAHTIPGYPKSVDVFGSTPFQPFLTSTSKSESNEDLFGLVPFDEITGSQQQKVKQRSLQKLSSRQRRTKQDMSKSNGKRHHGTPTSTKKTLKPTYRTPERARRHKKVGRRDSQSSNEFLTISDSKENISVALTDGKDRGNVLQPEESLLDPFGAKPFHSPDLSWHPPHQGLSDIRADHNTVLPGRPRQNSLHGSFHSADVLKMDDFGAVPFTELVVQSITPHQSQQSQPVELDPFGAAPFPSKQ
UniProt O60674: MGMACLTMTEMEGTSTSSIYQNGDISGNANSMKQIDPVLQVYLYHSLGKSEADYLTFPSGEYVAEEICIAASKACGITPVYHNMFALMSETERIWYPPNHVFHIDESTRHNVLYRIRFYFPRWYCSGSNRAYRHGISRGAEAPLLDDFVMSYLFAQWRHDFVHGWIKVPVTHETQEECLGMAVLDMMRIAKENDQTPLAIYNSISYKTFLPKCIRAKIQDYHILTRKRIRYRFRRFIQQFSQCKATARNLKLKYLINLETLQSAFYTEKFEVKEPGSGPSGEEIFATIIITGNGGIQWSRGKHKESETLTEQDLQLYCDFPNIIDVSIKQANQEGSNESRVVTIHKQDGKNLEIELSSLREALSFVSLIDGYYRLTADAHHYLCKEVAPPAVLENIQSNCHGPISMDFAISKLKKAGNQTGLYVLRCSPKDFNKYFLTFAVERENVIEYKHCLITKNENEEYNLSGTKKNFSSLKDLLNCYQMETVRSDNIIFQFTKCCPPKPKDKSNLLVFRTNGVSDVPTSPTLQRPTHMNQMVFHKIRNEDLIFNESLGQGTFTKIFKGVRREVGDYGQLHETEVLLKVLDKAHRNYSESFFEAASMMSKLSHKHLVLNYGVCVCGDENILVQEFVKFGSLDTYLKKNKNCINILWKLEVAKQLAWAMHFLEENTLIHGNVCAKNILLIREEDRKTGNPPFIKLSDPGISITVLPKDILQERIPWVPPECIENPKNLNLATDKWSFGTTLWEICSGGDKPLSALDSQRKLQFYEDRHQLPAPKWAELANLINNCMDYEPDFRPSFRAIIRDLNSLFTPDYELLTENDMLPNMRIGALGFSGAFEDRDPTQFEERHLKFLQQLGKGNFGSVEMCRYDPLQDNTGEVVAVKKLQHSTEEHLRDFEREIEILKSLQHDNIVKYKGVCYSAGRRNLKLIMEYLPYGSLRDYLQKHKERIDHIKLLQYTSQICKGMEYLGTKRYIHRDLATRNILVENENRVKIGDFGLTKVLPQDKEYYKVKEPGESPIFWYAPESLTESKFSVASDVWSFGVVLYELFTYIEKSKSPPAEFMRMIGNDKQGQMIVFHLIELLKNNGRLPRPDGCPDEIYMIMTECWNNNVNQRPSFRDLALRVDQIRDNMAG
UniProt Q99755: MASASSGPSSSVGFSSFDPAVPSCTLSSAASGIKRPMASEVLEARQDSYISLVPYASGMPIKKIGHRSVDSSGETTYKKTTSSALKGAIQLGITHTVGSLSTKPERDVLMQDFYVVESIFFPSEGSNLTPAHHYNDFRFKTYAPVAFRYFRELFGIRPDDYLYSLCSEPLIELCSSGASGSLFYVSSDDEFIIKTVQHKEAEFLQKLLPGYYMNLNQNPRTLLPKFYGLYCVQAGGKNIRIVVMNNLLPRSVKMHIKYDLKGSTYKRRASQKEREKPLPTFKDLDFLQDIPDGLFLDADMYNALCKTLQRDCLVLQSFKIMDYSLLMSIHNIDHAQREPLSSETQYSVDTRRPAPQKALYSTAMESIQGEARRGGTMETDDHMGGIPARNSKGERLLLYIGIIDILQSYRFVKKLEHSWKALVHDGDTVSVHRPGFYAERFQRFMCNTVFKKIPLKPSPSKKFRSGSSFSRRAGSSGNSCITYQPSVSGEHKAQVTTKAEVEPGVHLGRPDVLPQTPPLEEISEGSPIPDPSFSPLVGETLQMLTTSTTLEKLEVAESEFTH
UniProt Q9BVS4: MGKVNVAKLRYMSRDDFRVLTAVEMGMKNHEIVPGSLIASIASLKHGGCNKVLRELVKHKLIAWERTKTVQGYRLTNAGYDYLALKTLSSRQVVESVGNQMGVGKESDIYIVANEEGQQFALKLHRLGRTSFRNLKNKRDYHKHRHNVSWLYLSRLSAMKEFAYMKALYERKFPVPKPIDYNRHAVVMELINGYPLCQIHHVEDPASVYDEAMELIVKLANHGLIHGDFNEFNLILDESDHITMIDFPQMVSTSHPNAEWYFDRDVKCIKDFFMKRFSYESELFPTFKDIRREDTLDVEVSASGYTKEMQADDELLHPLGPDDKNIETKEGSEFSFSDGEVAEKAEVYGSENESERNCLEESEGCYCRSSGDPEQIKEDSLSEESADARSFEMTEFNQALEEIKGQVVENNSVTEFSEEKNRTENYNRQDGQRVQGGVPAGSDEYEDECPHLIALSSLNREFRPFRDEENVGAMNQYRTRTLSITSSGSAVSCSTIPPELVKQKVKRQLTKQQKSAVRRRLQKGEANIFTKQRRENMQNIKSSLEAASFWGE
UniProt P35991: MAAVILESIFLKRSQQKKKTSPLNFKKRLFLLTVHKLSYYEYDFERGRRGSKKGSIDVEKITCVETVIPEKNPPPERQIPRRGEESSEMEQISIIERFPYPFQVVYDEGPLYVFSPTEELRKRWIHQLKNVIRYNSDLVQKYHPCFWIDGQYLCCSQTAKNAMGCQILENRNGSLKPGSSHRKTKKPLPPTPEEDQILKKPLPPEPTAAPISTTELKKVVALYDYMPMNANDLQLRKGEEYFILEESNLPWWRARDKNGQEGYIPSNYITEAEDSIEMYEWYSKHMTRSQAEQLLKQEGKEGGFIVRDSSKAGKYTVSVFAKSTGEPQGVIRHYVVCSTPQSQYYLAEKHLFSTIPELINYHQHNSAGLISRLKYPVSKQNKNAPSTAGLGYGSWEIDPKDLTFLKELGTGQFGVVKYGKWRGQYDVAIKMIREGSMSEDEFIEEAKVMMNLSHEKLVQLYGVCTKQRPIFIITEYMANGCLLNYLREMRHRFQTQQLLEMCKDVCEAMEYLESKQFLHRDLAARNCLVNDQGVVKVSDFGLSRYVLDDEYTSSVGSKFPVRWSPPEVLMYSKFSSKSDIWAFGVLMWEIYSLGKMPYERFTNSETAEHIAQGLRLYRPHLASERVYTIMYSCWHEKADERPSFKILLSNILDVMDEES

The target of experiment [1] is T1, Mitogen-activated protein kinase kinase kinase 19 (Homo sapiens, UniProt Q56UN5).
T1 sequence (Q56UN5 whole entry): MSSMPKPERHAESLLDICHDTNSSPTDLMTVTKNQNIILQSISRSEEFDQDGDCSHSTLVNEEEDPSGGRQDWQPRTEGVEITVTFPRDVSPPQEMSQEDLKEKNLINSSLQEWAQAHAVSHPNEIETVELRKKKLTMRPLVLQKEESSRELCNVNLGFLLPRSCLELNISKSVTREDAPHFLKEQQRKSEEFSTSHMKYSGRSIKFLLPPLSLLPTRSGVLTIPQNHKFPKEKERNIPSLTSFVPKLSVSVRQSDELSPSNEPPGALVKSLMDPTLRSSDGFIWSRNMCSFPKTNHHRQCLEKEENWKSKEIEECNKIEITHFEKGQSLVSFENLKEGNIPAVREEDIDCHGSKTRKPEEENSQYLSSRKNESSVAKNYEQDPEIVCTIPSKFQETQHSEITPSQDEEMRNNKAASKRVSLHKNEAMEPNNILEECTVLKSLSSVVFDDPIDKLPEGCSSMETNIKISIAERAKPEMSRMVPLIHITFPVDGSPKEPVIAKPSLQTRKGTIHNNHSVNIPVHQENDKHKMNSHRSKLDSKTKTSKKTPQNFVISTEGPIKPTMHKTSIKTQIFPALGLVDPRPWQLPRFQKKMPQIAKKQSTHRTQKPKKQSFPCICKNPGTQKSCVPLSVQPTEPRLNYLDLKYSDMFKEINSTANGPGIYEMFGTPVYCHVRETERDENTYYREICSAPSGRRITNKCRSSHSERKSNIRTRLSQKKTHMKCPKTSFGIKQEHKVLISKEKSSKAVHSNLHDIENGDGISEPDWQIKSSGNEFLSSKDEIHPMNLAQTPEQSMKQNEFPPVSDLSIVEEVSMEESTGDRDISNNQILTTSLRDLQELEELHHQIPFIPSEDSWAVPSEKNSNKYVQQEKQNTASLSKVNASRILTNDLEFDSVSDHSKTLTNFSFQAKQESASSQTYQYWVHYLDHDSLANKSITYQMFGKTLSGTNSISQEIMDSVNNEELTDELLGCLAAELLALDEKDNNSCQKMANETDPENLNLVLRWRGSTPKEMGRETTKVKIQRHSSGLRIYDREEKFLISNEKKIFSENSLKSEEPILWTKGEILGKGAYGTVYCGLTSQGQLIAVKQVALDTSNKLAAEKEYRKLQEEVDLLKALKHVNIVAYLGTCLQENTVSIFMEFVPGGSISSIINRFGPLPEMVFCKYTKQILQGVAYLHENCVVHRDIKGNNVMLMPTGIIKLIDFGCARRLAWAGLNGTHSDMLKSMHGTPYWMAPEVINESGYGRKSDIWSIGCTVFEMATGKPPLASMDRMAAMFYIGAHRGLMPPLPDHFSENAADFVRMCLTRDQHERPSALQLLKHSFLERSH
The experiment can be described thus: Binding affinity to wild-type human partial length YSK4 (T1019 to H1328 residues) expressed in mammalian expression system by Kinomescan method.

Experiment [2] has as its target AP2-associated protein kinase 1 (Homo sapiens, UniProt Q2M2I8). Put plainly: Binding affinity to human wild-type AAK1 (G25 to L333 residues) expressed in bacterial expression system by Kinomescan method.
For experiment [3], the target named is BMP-2-inducible protein kinase (Homo sapiens, UniProt Q9NSY1). Put plainly: Binding affinity to human wild-type BMP2K (S34 to N329 residues) expressed in bacterial expression system by Kinomescan method.
In experiment [4] the target is T2, Cyclin-dependent kinase-like 2 (Homo sapiens, UniProt Q92772).
T2 sequence (Q92772 whole entry): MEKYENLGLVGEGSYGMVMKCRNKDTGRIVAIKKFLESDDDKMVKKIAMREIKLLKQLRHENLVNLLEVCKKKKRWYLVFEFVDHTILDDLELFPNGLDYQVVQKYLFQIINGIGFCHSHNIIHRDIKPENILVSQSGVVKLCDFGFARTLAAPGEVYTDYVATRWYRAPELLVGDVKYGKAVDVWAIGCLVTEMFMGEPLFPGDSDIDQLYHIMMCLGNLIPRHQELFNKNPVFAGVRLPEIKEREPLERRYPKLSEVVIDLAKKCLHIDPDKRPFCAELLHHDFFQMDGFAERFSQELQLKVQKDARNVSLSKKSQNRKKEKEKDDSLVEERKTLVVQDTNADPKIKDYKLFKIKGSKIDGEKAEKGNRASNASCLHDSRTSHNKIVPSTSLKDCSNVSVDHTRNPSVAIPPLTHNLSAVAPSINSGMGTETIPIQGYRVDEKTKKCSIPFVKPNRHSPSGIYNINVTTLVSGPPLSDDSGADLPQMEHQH
The experiment can be described thus: Binding affinity to wild-type human partial length CDKL2 (M1 to D327 residues) expressed in bacterial expression system by Kinomescan method.

For experiment [5], the target named is Tyrosine-protein kinase JAK2 (Homo sapiens, UniProt O60674). Put plainly: Binding affinity to wild-type human partial length JAK2 JH1 catalytic domain (A829 to G1132 residues) expressed in mammalian expression system by Kinomescan method.
For experiment [6], the target named is Phosphatidylinositol 4-phosphate 5-kinase type-1 alpha (Homo sapiens, UniProt Q99755). Put plainly: Binding affinity to wild-type human full length PIP5K1A (M1 to H562 residues) expressed in bacterial expression system by Kinomescan method.
Experiment [7] has as its target T3, Serine/threonine-protein kinase RIO1 (Homo sapiens, UniProt Q9BRS2).
T3 sequence (Q9BRS2 whole entry): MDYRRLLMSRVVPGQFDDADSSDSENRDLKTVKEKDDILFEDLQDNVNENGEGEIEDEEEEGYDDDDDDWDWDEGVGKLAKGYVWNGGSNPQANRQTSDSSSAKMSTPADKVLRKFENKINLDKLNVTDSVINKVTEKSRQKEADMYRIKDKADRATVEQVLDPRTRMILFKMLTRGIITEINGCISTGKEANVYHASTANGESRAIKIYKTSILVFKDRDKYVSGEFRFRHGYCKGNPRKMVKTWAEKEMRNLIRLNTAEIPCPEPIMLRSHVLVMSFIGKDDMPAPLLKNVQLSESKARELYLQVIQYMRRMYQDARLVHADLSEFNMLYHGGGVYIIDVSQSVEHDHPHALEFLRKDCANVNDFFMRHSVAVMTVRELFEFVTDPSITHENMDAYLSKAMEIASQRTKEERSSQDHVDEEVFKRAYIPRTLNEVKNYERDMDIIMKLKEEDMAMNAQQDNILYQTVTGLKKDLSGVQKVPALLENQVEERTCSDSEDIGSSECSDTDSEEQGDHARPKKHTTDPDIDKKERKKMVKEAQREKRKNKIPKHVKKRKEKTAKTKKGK
Put plainly: Binding affinity to wild-type human full length RIOK1 (M1 to K568 residues) expressed in bacterial expression system by Kinomescan method.

Experiment [8] deals with Serine/threonine-protein kinase RIO2 (Homo sapiens, UniProt Q9BVS4). Put plainly: Binding affinity to wild-type human partial length RIOK2 (M1 to D313 residues) expressed in mammalian expression system by Kinomescan method.
For experiment [9], the target named is Tyrosine-protein kinase BTK (Mus musculus) (UniProt P35991). The conditions noted are these: DBA1, dose 30.0 mg/kg, time 10.0 day.

Each structure is given as a SMILES string. Bounds are passed on as bounds.

As for `Cc1cc(-c2ccnc(Nc3cnn(C)c3)n2)ccc1CNC(=O)N1CC(OC(C)C)C1`, the Kd was 130 nM in [1]; 430 nM in experiment [2]; 1100 nM in [3]; 420 nM in experiment [4]; 460 nM in experiment [5]; greater than 10000 nM in [6]. Moreover, the results for the dissociation constant (Kd) in experiment [7] and in experiment [8] were 1200 nM and 2400 nM, respectively. This molecule came in with an inhibition in experiment [9] of 90%.
